Laboratory results from patent US20230270720A1, “MAVOGLURANT, A MGLUR5 ANTAGONIST, FOR USE IN THE TREATMENT IN THE REDUCTION OF OPIOID USE” (Novartis AG, priority 2020, published 2023).

Test system: Sprague-Dawley rats
Experiment: Remifentanil intravenous self-administration model in Sprague-Dawley rats
Type: in vivo, rat

Compound	average number of remifentanil infusions (20 mg/kg p.o. 30 minutes before one remifentanil 3.2 μg/kg/infusion session)	average number of remifentanil infusions (0.4 mg/kg s.c. 30 minutes before session)	rate of lever press (0.4 mg/kg s.c. 30 minutes before session, not reaching statistical significance (p>0.05))
Cc1cccc(C#Cc2ccccc2)n1 [Compound (III), 2-Methyl-6-(phenylethynyl)-pyridine, reference compound]	did not significantly affect		
Buprenorphine hydrochloride		markedly and significantly reduced	0.038±0.025 responses per second
